{"source": "paper PMC4822888", "about": "“Subtype-Selective Small Molecule Inhibitors Reveal a Fundamental Role for Nav1.7 in Nociceptor Electrogenesis, Axonal Conduction and Presynaptic Release” (PLoS ONE, 2016)", "tested_on": "Nav1.7^Nav1.8Cre mice", "conditions": "mouse, in vivo", "data": [{"smiles": "Nc1n[nH]cc1-c1cc(C(F)(F)F)ccc1Oc1cc(F)c(S(=O)(=O)Nc2cscn2)cc1Cl", "note": "[PF-05198007, 4-(2-(3-amino-1H-pyrazol-4-yl)-4-(trifluoromethyl)phenoxy)-5-chloro-2-fluoro-N-(thiazol-4-yl)benzenesulfonamide]", "values": [{"measurement": "Effect on capsaicin flare response", "result": "no effect"}]}]}
